Experimental findings from ChEMBL document CHEMBL1629443 (J Med Chem, 2010) are described below.

pIC50: −log10 of the molar value.

One test addresses Histone deacetylase 1 (Homo sapiens, UniProt Q13547). The test can be described thus: Inhibition of human recombinant HDAC1 expressed in HEK293 cells. The test is classed as cell-based.
The target in the next test is Histone deacetylase. The test is described as follows: Inhibition of HDAC in human HeLa cell nuclear extracts. It counts as cell-based.
The target in test [1] is T1, Protein deacetylase HDAC6 (Homo sapiens, UniProt Q9UBN7).
T1 sequence (Q9UBN7 whole entry): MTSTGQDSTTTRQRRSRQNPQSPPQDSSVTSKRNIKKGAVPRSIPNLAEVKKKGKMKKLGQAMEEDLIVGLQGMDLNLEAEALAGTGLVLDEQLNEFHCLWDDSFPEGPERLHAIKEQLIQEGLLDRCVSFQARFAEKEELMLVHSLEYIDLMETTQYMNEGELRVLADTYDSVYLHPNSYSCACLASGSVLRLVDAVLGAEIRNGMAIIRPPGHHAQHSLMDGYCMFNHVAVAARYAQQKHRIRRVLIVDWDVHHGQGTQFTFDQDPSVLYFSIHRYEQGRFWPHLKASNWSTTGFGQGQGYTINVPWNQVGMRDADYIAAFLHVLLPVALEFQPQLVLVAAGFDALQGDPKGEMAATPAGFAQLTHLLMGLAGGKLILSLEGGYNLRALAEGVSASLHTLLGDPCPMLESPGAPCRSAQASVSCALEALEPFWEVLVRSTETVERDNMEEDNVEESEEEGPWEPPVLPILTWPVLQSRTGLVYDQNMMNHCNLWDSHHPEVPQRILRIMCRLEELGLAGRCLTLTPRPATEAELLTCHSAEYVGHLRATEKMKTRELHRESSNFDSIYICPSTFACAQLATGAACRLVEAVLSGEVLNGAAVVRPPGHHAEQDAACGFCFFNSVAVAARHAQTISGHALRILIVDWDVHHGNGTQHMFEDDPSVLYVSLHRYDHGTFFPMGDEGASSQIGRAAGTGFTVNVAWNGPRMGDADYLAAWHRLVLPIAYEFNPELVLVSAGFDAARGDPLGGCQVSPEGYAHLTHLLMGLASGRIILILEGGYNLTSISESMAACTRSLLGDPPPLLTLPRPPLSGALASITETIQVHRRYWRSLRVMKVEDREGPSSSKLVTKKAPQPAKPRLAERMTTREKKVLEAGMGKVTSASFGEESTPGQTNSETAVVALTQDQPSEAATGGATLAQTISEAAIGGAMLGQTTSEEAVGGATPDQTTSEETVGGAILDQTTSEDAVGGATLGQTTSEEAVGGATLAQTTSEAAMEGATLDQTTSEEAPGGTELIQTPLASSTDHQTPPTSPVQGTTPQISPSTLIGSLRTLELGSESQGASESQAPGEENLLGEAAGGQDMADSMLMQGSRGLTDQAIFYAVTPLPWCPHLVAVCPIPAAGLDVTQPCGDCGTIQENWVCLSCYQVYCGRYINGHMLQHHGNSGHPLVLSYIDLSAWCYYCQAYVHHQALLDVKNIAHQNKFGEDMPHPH
The test is described as follows: Inhibition of human recombinant HDAC6 expressed in HEK293 cells. The test is classed as cell-based.

A further test relates to HeLa. The test can be described thus: Cytotoxicity against human HeLa cells overexpressing HDAC by resazurin dye reduction assay. In general terms: The colour change of resazurin is a common sign of viable cells or microbes.

By pIC50 is commonly meant the negative decadic logarithm of the IC50, by convention in mol/L. For `CS(=O)(=O)CCNCc1ccc(-c2ccc3ncnc(Nc4ccc(OCc5cccc(F)c5)c(Cl)c4)c3c2)o1` [LAPATINIB], the negative-log IC50 (pIC50) on Histone deacetylase 1 is less than 5.00.

The term IC50 denotes the concentration at which inhibition is half-maximal. Low readings indicate greater potency in that assay, high ones weaker potency in that assay. For the compound `O=C(NO)c1ccc(-c2ccc3ncnc(Nc4ccc(OCc5cccc(F)c5)c(Cl)c4)c3c2)o1`, on Histone deacetylase, the IC50 was found to be 8.3 µM. Also, the pIC50 (in test [1]; with HeLa) was 5.01 each time.
